Measurements: ChEMBL document CHEMBL3102846 (Eur J Med Chem, 2014)

tested on: HEK293T (human); assay: Cytotoxicity against human U2OS cells at dual luciferase reporter gene assay EC50 after 24 hrs by MTS assay

Point of comparison: O=C(/C=C/c1ccc(O)cc1)/C=C/c1ccc(O)cc1, Activity 99.2%. Against it:
- O=C1/C(=C/c2ccc(O)cc2)CCC/C1=C\c1ccc(O)cc1 — higher, 105.9%
- COc1ccc(/C=C2\CC/C(=C\c3ccc(OC)c(OC)c3)C2=O)cc1OC — lower, 40%
